Measured values: patent US11116757B2 (priority 2015, dated 2021)

By UniProt entry, the sequences of proteins in these tests, tags left out. Residues count along the entry.
UniProt Q96GG9, 60-248 limits assumed: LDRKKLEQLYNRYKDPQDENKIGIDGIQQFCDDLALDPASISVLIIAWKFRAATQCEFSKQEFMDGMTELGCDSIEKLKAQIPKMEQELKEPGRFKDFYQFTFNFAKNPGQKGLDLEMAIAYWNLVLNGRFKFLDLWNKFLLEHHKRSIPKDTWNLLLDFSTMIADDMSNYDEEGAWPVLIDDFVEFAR

Target: DCN1-UBC12 interaction (Homo sapiens (Human), UniProt Q96GG9)
Assay: TR-FRET assay for DCN1 binding to UBC12NAc peptide
Conditions: read-out: TR-FRET IC50

## CCCN1CCC(NC(=O)Nc2ccc([N+](=O)[O-])cc2)CC1
  IC50: > 67.6 µM
